Among the data in ChEMBL document CHEMBL3085655, “4β-Methyl-5-(3-hydroxyphenyl)morphan opioid agonist and partial agonist derived from a 4β-methyl-5-(3-hydroxyphenyl)morphan pure antagonist” (J Med Chem, 2013) are Agonist potency, Ke and Ki values, retold here.

Chains of the proteins cited; added tags and fusions are not shown.
UniProt P41143, whole entry: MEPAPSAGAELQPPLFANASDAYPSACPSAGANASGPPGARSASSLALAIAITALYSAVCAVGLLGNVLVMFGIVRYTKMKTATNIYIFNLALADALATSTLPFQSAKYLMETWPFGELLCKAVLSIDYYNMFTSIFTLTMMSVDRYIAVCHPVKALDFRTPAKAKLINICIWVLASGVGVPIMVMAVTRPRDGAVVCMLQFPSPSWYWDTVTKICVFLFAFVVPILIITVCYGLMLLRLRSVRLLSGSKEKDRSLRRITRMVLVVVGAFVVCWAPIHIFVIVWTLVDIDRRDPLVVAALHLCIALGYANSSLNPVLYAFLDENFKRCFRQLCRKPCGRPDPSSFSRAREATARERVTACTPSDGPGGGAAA
UniProt P35372, whole entry: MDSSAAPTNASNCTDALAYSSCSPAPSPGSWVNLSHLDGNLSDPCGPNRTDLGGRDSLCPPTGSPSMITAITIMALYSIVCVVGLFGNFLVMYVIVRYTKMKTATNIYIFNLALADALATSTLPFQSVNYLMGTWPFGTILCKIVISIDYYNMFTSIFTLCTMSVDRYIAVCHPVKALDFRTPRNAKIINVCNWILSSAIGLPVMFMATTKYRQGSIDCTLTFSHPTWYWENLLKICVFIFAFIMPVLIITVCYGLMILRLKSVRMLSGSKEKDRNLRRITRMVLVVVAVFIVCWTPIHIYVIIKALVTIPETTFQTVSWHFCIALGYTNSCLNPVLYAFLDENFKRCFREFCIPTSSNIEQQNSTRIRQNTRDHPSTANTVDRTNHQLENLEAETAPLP

pKi: −log10 of the molar value. Bounds are passed on as bounds.

In test [1] the target is T1, Delta-type opioid receptor (Homo sapiens, UniProt P41143). Briefly: Intrinsic agonist activity at human delta opioid receptor expressed in CHO cells by [35S]GTPgammaS binding assay. Type of test: functional, cell-based.
A further test deals with Mu-type opioid receptor (Homo sapiens, UniProt P35372). Briefly: Antagonist activity at human mu opioid receptor expressed in CHO cells by [35S]GTPgammaS binding assay. It counts as functional, cell-based.
The target in test [2] is T1, Delta-type opioid receptor. Briefly: Displacement of [3H]DADLE from human delta opioid receptor expressed in CHO cells. It counts as cell-based. In outline: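 Competition radioligand binding at the human receptors, run at the Psychoactive Drug Screening Program. Radioligands were [3H]DAMGO (MOR), [3H]DADLE (DOR) and [3H]U69,593 (KOR). Radioligand Kd determined by homologous competition binding with the receptor-specific radioligand. Ki values reported.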

For `C[C@@H]1CN(CCCc2ccccc2)[C@@H]2CCC[C@]1(c1cccc(O)c1)C2`, in test [1], the Agonist potency was above 5 µM. Further, the Ke on Mu-type opioid receptor stood at 1.9 nM.

For `C[C@@H]1CN(CCCc2ccccc2)[C@H]2C[C@H](NCC3CC3)C[C@]1(c1cccc(O)c1)C2`, in test [1], the Agonist potency was above 5 µM. In test [2], this compound gave a pKi of 7.36.

What is called pKi is the Ki on a negative log10 scale, so that one unit is a factor of ten. Read a high pKi as a low Ki.
